Reference: ChEMBL document CHEMBL1269007, “Synthesis and biological evaluation of Apogossypolone derivatives as pan-active inhibitors of antiapoptotic B-cell lymphoma/leukemia-2 (Bcl-2) family proteins” (J Med Chem, 2010)

Molecular target: T1, Bcl-2-related protein A1 (Homo sapiens, UniProt Q16548)
T1 sequence (Q16548 whole entry): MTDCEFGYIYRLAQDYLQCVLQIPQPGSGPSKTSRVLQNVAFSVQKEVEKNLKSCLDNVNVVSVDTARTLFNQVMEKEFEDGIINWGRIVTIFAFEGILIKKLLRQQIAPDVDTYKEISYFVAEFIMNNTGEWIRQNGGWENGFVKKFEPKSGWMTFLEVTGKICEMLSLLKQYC
Assay: Displacement of F-BakBH3 from Bfl-1 after 30 mins by fluorescence polarization assay

CC1=C(C2=C(C)C(=O)c3c(cc(O)c(O)c3CCc3ccc(C)cc3)C2=O)C(=O)c2cc(O)c(O)c(CCc3ccc(C)cc3)c2C1=O
IC50: 14.7 µM
Ki: 9.33 µM
